Reference: paper PMC3401593 (2009)
Where two headings read alike, the source gives them in different places.

The chains behind the UniProt entries cited, without tags or fusion partners.
UniProt P08183, whole entry: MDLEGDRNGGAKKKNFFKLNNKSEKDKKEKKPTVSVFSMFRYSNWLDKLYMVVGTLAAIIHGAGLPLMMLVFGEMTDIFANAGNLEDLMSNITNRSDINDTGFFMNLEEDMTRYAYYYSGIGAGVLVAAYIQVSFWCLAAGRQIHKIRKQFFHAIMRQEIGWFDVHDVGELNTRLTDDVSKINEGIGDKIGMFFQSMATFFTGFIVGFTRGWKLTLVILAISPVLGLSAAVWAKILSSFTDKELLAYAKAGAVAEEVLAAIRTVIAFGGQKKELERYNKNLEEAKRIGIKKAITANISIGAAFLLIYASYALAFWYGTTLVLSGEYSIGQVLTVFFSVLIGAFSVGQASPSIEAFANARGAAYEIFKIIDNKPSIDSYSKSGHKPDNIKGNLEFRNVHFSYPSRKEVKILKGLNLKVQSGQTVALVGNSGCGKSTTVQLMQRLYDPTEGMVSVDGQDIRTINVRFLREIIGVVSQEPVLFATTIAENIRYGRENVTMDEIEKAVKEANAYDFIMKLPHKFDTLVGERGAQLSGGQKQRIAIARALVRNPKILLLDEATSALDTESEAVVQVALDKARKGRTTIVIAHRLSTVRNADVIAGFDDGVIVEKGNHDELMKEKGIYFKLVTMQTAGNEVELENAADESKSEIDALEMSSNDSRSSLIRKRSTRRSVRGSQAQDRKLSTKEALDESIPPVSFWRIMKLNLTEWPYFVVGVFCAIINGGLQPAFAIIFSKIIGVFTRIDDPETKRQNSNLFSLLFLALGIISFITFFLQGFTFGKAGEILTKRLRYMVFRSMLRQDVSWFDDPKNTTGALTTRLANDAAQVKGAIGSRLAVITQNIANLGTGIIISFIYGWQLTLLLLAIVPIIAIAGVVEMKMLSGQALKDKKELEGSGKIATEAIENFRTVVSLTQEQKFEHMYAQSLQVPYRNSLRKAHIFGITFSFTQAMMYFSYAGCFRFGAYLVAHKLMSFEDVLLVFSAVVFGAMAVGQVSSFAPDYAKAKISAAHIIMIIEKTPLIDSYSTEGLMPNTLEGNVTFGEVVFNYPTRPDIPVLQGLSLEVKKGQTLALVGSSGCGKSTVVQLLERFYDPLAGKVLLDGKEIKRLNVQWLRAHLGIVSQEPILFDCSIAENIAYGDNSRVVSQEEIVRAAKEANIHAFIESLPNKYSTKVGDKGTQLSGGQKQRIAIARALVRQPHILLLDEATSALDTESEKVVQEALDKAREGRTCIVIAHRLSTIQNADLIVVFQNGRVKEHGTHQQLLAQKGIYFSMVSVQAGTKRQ

Experiments:
[1] = rats, cited from earlier work
recombinant human P-gp = recombinant human P-gp (Homo sapiens, UniProt P08183)
[2] = mouse, sc

buprenorphine
Enhancement of the apparent brain uptake ([1]; with cyclosporin A, quinidine, […]): ~ 1.5 fold | Enhancement of the apparent brain uptake ([1]; with vinblastin and vincristine): no detectable enhancement | Rates of ATP consumption or fold stimulation of basal P-gp ATPase activity versus control (recombinant human P-gp): no statistically significant differences | Effect of genetic disruption of P-gp on distribution to the brain, liver, or kidney [2]: no statistically significant effect
